Chains of the proteins cited; added tags and fusions are not shown. Residues count along the entry.
UniProt P28335, 33-458: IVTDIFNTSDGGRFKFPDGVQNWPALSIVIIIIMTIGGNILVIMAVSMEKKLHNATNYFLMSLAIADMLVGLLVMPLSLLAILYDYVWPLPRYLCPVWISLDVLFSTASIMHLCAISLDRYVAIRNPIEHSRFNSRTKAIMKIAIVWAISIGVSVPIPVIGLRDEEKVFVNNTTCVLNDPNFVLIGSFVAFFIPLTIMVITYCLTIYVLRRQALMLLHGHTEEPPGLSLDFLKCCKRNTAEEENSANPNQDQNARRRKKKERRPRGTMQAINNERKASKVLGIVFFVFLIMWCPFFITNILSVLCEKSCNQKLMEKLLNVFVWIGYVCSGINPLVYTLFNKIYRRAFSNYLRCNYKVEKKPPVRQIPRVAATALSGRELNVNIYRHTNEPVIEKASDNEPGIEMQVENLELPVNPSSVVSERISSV

According to US20060264418A1, “6-(2,2,2-Trifluoroethylamino-7-chloro-2,3,4,5-tetrahydro-1h-benzo[d] azephine as a 5-ht2c receptor agonist” (priority 2003, published 2006):

Target: 5-HT2C receptor (Homo sapiens, UniProt P28335)
Assay: G alpha q-GTPγ[35S] binding agonist activity assay (ISPA), 5-HT2C
Format: biochemical
Parameters: expressed in transfected cells; host or cells: AV12 cells
Conditions: ratio of AUCs normalized to 5-HT

Clc1cccc(N2CCNCC2)c1 [mCPP, meta-chlorophenylpiperazine, reference compound]
AUC 2C/2A Selectivity Ratio (5-HT2C receptor/5-HT2A receptor): 2.1 | AUC 2C/2B Selectivity Ratio (5-HT2C receptor/5-HT2B receptor): 2.1
